By UniProt entry, the sequences of proteins in these tests, tags left out.
UniProt O14684, whole entry: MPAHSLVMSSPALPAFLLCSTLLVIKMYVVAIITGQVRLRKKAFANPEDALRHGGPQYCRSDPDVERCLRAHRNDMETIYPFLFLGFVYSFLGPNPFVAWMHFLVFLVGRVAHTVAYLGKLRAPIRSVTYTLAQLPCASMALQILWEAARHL

In patent publication US8759537B2, “3H-imidazo [4, 5-C] pyridine-6-carboxamides as anti-inflammatory agents” (Boehringer Ingelheim International GmbH, priority 2010, dated 2014):

Biological target: mPGES-1 (Homo sapiens (Human), UniProt O14684)
Assay: A549 cell-based assay (PGE2 formation, IL-1β stimulated, 50% human serum)
Details: read-out: mPGES-1 inhibitory effect in the cell assay, IC50, A549 cells, IL-1β 5 ng/ml

CN1CCC[C@H]1C(=O)NCc1ccc(Cl)c(Nc2nc3cc(C(=O)Nc4ccc(F)c(Cl)c4)c(OCC(F)F)cc3n2C)c1Cl
IC50: 1 nM
